In patent publication US20100184820A1, “COMBINATIONS COMPRISING STAUROSPORINES” (priority 2006, published 2010):

System: HMC-1.1 cells
Experiment: 3H-thymidine incorporation assay
Assay type: cell-based, human

Nc1nc(Cl)nc2c1ncn2[C@H]1C[C@H](O)[C@@H](CO)O1 [2CdA, 2-chlorodeoxyadenosine]
cell growth / proliferation (in words): no significant effect
